Consider one substance from patent publication US20070265306A1, “4-[(3-fluorophenoxy)phenylmethyl]piperidine methanesulfonate: uses, process of synthesis and pharmaceutical compositions” (priority 2006, published 2007).

The data set is described as follows: solubility in water. Type of data set: physicochemical.

For the substance “(S)-4-[(3-fluorophenoxy)phenylmethyl]piperidine dibenzoyl-L-tartaric acid salt”, the solubility in water entry is “insoluble in water”.
